This note sets out measurements from patent US11331299B2, “Medicinal use of serrulatane diterpenes” (The University of Sydney, priority 2016, dated 2022).

Chains of the proteins cited; added tags and fusions are not shown. Lines headed by an entry give the natural chain unless they say otherwise; changes in a name come on top. Residues count along the entry.
UniProt P42574, 29-277: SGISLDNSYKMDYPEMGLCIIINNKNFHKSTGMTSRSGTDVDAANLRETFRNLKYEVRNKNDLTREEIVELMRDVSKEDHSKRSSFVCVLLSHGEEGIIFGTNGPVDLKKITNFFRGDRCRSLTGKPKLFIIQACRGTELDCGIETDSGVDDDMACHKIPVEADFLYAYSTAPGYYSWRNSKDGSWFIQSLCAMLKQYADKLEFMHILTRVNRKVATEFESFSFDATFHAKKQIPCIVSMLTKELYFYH
UniProt Q9UPP1: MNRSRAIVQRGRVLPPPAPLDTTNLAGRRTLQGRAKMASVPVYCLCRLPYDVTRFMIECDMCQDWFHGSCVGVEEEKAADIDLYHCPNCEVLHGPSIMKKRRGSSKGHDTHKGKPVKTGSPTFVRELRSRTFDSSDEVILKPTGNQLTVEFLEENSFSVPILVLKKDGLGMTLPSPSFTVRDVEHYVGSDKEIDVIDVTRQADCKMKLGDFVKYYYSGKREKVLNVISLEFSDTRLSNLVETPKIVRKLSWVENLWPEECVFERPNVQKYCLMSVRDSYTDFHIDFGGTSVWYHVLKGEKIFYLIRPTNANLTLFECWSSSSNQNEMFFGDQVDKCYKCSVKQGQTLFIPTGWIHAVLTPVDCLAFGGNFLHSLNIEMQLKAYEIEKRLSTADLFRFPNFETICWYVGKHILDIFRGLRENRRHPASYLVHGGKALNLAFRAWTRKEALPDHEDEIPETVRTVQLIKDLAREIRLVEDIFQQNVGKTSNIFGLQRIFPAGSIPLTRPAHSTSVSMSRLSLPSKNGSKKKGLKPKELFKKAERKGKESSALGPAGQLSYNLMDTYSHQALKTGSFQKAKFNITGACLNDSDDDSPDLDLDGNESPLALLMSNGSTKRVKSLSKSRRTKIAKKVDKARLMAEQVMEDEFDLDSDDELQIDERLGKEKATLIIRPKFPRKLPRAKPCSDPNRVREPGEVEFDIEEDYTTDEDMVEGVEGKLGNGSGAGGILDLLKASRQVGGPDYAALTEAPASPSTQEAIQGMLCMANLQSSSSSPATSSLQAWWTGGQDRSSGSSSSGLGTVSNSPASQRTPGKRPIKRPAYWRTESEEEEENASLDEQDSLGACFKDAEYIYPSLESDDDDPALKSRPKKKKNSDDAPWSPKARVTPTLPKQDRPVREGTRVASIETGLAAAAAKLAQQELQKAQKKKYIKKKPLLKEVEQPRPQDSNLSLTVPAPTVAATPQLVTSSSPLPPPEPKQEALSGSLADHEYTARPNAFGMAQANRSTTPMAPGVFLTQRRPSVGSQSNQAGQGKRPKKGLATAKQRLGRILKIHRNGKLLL
UniProt P43116: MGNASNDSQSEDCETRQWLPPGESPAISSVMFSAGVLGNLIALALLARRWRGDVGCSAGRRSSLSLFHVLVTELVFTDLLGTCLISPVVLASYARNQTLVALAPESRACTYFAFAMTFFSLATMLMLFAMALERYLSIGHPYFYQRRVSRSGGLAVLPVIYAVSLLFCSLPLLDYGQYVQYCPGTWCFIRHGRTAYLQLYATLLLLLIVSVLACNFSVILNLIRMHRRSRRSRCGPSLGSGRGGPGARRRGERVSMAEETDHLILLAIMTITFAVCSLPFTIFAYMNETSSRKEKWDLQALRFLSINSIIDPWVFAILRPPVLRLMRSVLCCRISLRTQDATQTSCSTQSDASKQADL
UniProt P21452, whole entry: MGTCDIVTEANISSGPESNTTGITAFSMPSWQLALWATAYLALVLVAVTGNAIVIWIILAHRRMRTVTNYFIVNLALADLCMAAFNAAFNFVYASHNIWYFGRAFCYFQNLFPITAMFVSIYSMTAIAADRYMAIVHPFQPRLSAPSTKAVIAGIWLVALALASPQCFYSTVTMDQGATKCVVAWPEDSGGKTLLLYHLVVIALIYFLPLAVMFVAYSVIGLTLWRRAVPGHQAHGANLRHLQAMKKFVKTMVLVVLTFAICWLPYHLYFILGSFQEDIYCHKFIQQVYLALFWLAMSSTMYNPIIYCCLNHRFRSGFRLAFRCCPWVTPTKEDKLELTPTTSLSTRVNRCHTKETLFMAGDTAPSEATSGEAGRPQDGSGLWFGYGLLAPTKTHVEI

Experiment [1] has as its target enzymes (Bioprint panel) (Homo sapiens, UniProt P42574). Kind of experiment: biochemical.
Experiment [2] deals with PHF8(h) (Homo sapiens, UniProt Q9UPP1). Kind of experiment: Epigenetic enzyme assay, Demethylases (KDMs). It counts as biochemical.
In experiment [3] the target is receptors (Bioprint panel) (Homo sapiens, UniProt P43116). To be noted: read-out: Reference Compound IC50.
Experiment [4] addresses receptors (Bioprint panel) (Homo sapiens, UniProt P21452). Kind of experiment: biochemical.

Structures are written as SMILES.

In experiment [1], `CC(=O)N[C@@H](CC(=O)O)C(=O)N[C@@H](CCC(=O)O)C(=O)N[C@H](C(=O)N[C@H](C=O)CC(=O)O)C(C)C` [Ac-DEVD-CHO] displayed an IC50 of 2.9 nM.

Take `CN(C)NC(=O)CCC(=O)O` [Daminozide, reference compound]: it took 280 nM to reach half-maximal inhibition in experiment [2] (IC50).

As to `CCCCC[C@H](O)/C=C/[C@H]1[C@H](O)CC(=O)[C@@H]1C/C=C\CCCC(=O)O` [PGE2], in experiment [3], the IC50 amounted to 2.7 nM.

`CCCC[C@H](NC(=O)[C@H](CC(C)C)NC(=O)CNC(=O)[C@@H](NC(=O)[C@H](Cc1ccccc1)NC(=O)[C@H](CO)NC(=O)[C@@H](N)CC(=O)O)C(C)C)C(N)=O` [[Nleu10]-NKA (4-10)] came in with an IC50 in experiment [4] of 2.9 nM.
